In patent US4618681A, “Aryl substituted 1H-4,5-dihydro-1,2,3-triazoles as anticonvulsants” (priority 1984, dated 1986):

Key:
[1] = mice, i.p.
[2] = Subcutaneous Metrazol Seizure Threshold Test (sc Met) in mice; conditions: Phase V, i.p.

SMILES: CCC1(c2ccccc2)C(=O)NC(=O)NC1=O [Phenobarbital, phenobarbital]
- Time of Test / time of peak effect (TPE), Rotorod [1]: 1/2
- effectiveness by the sc Met test [2]: effective against sc Met, sc Bic, and sc Pic in nontoxic doses
